# Columns and labels:
# [1] = tested on: pooled human red blood cells; experiment: Haemolysis assay; format: cell-based
# Procedure: The peptide under study was aliquoted at the desired concentration in triplicate in Nunc 96 well plates, and serial 1:1 dilutions (100 μl) were made. 100 μl of washed (3 washes of 50 ml HBSS) pooled human red blood cells (RBC) (1×10^8 RBC/ml) were added to the test wells and incubated at 37° C. for 3 hours. After incubation a further 100 μl of HBSS was added to all the wells and the plate was incubated at 4° C. overnight. 100 μl of the supernatant was removed and placed in a fresh microtitre plate which was read in a Sunrise plate reader (Tascam) at 450/620 nm. Control wells (quadruplicate) of buffer alone, buffer and RBCs, and H2O and RBC were also included. The data were plotted and statistically analyzed using Graph Pad (Prism software).
# [2] = Hepatotoxicity of cyclized peptides; conditions: at concentrations similar to those demonstrating antifungal activity
# [3] = Maximum Concentration Tested 10.0 mM
substance,measurement,setting,value
Cyclic-DK-DK-DK-DK-DK-DK-DK-G [Peptide 8],Haemolysis,[1]; [3],None
Cyclic-DO-DO-DO-DO-DO-DO-DO-G [Peptide 7],Haemolysis,[1]; [3],None
Cyclic-DR-DR-DR-DR-DR-DR-DR-G [Peptide 6],Haemolysis,[1]; Maximum Concentration Tested 5.0 mM,None
Cyclic-K-K-K-K-K-K-K-G [Peptide 3],Haemolysis,[1]; [3],None
Cyclic-O-O-O-O-O-O-O-G [Peptide 5],Haemolysis,[1]; [3],None
Cyclic-R-R-R-R-R-R-R [Peptide 2],Hepatotoxicity,[2],no hepatotoxicity
same,Haemolysis,[1]; Maximum Concentration Tested 73.7 mM,None
Cyclic-R-R-R-R-R-R-R-G [Peptide 4],Haemolysis,[1]; [3],None

# From patent US9181303B2, “Treatment of bacterial infections with cyclic antimicrobial peptides” (N[…], priority 2005, dated 2015)
